For test [1], the target named is T1, human FAK (Homo sapiens (Human), UniProt Q05397). The test is described as follows: biochemical.
Test [2] has as its target T2, human JAK2 (Homo sapiens (Human), UniProt O60674). The test is described as follows: biochemical.
Test [3] addresses human JAK3 (Homo sapiens (Human), UniProt P52333). Nature of the test: biochemical.
Test [4] has as its target T2, human JAK2. To be noted: read-out: JAK2 IC50.
Test [5] has as its target T1, human FAK. To be noted: read-out: FAK IC50.
Test [6] deals with various tumor cell lines. To be noted: cited from earlier work.

Protein sequences, listed by entry. Tags and fused reporters are not part of them. Residues count along the entry.
UniProt Q05397, whole entry: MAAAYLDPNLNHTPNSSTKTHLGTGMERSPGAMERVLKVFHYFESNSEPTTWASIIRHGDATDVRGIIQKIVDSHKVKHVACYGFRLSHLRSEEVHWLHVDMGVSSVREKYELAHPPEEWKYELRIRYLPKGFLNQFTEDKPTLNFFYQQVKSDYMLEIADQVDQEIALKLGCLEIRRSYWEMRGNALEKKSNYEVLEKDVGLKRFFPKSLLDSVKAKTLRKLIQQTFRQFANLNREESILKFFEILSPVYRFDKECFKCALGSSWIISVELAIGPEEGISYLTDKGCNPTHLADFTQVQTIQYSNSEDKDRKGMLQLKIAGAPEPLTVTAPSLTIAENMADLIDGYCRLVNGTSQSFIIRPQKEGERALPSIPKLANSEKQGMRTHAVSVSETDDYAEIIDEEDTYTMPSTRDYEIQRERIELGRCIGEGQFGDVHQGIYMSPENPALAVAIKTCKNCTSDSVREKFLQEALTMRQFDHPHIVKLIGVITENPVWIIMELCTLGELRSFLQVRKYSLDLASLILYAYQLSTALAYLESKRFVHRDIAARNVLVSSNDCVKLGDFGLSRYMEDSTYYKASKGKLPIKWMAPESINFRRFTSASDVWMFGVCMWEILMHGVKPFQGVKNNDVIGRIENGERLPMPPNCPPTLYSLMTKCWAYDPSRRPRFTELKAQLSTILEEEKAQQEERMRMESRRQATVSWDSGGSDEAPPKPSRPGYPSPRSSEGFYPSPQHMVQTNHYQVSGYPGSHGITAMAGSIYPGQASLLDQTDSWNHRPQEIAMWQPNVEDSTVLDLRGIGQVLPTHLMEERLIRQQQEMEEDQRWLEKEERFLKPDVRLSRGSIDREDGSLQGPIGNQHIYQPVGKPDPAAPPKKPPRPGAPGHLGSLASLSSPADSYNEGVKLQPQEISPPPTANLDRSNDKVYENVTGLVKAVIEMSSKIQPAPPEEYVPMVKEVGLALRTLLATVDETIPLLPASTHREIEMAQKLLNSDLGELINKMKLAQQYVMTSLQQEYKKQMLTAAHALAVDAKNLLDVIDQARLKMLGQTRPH
UniProt O60674, 815-1132: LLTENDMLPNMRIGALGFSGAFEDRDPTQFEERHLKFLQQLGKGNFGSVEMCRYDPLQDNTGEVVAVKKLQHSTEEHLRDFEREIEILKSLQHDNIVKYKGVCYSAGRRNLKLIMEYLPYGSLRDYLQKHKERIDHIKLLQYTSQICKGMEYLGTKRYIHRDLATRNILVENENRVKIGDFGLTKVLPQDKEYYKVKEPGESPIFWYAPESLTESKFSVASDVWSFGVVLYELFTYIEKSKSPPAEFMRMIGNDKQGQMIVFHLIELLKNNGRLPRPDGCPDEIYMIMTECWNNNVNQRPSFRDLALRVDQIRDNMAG
UniProt P52333, 784-1124: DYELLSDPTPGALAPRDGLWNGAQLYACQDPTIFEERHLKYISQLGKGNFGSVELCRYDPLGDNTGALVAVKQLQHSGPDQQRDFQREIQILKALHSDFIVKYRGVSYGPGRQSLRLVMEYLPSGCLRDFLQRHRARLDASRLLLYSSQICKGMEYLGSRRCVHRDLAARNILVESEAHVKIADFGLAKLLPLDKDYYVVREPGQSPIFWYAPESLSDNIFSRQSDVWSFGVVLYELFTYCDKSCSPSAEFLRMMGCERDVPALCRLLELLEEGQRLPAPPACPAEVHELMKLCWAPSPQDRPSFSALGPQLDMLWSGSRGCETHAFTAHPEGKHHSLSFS

Read-outs that look alike come from different tables or passages of the source.

What is called IC50 is the point on the concentration scale where inhibition reaches its midpoint. Regarding `CC(C)(C)OC(=O)N1CC[C@@H](c2cccc(Nc3nc4c(-c5ccc(S(C)(=O)=O)cc5)cccn4n3)c2)[C@@H](O)C1` (racemic) [Example 186, (±)-(cis)-3-Hydroxy-4-{3-[8-(4-methanesulfonyl-phenyl)-[1,2,4]triazolo[1,5-a]pyridin-2-ylamino]-phenyl}-piperidine-1-carboxylic acid tert-butyl ester], in test [1], the concentration for half-maximal inhibition (IC50) worked out at 2990 nM.
Turning to `CS(=O)(=O)c1ccc(-c2cccn3nc(Nc4cccc([C@@H]5CCN(CC(N)=O)C[C@@H]5O)c4)nc23)cc1` (racemic) [Example 191, (±)-2-((cis)-3-Hydroxy-4-{3-[8-(4-methanesulfonyl-phenyl)-[1,2,4]triazolo[1,5-a]pyridin-2-ylamino]-phenyl}-piperidin-1-yl)-acetamide], the values for the IC50 in test [1] and in test [2] were 999 nM and 0.55 nM, respectively.
On to `COc1ccccc1-c1cccn2nc(Nc3ccccc3)nc12` [Example 3, [8-(2-Methoxy-phenyl)-[1,2,4]triazolo[1,5-a]pyridin-2-yl]-phenyl-amine], for which, in test [2], the IC50 amounted to 96.9 nM.
In the case of `c1ccc(Nc2nc3c(-c4cccnc4)cccn3n2)cc1` [Example 7, Phenyl-(8-pyridin-3-yl-[1,2,4]triazolo[1,5-a]pyridin-2-yl)-amine], the IC50 in test [3] was found to be 3750 nM; in test [2], 149 nM.
The corresponding values for `CS(=O)(=O)c1ccc(-c2cccc3nc(Nc4ccccc4)nn23)cc1` [Example 74, [5-(4-Methanesulfonyl-phenyl)-[1,2,4]triazolo[1,5-a]pyridin-2-yl]-phenyl-amine] are 92.7 nM and 2.1 nM.
`CN1CCN(c2nc3c(NCc4cccc(N)c4)cccn3n2)CC1` [Example 97, (3-Amino-benzyl)-[2-(4-methyl-piperazin-1-yl)-[1,2,4]triazolo[1,5-a]pyridin-8-yl]-amine]: the IC50 in test [1] was at least 10000 nM.
In test [2], `CS(=O)(=O)c1ccc(-c2cccn3nc(Nc4cccc(C5CCNCC5)c4)nc23)cc1` [Example 182, [8-(4-Methanesulfonyl-phenyl)-[1,2,4]triazolo[1,5-a]pyridin-2-yl]-(3-piperidin-4-yl-phenyl)-amine] returned an IC50 of 0.53 nM.
For `COCc1ccccc1-c1cccn2nc(Nc3ccc4c(c3)CCN(C(=O)OC(C)(C)C)CC4)nc12` [Example 241, 7-[8-(2-Methoxymethyl-phenyl)-[1,2,4]triazolo[1,5-a]pyridin-2-yl-amino]-1,2,4,5-tetrahydro-3-benzazepine-3-carboxylic acid tert-butyl ester], the figures for the IC50 in test [1] and in test [2] were at least 10000 nM and 1100 nM, respectively.
The corresponding values for `COCc1ccccc1-c1cccn2nc(Nc3ccc4c(c3)CCNCC4)nc12` [Example 242, [8-(2-Methoxymethyl-phenyl)-[1,2,4]triazolo[1,5-a]pyridin-2-yl]-(2,3,4,5-tetrahydro-1H-3-benzazepin-7-yl)amine] are at least 10000 nM and 131 nM.
For the compound `CCOc1ccccc1-c1cccn2nc(Nc3ccc4c(c3)CCNCC4)nc12` [Example 300, [8-(2-Ethoxy-4-methyl-phenyl]-[1,2,4]triazolo[1,5a]pyridine-2-yl]-(2,3,4,5-tetrahydro-benzo[d]azepin-7-yl)-amine], the figures for the IC50 in test [4] and in test [5] were 16.5 nM and 3000 nM, respectively.
In the case of AG490, the “chemosensitization to cisplatin, fludarabine, adriamycin and doxorubicin” value in test [6] was “chemosensitized”.

Source of the values: US8501936B2 (priority 2009, dated 2013).
